From PubChem BioAssay
Only some compounds are listed: those with a hit (about 16% of all), similar ones and a draw of the others.
miR-21 reporter = raises the signal of a miR-21 reporter | AID 2288 | 340,000 tested, under 10 active | Potency, µM (series often up to 38.3 µM) | HeLa miR-21 FLuc reporter, luciferase, 48 h; active = well fitted rising curve with a large enough effect; inconclusive = small, poorly fitted or top-dose-only effect; inactive = no such curve, though single readings can be large or run the other way;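 further: miR-21 action dims this reporter so a rising signal means less miR-21 action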
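Compounds were titrated across several concentrations (up to approximately 40 uM) and incubated 48 hours with HeLa miR-21-FLuc reporter cells (miR-21 target sequence downstream of FLuc, endogenous miR-21). Readout was firefly luciferase luminescence after lytic detection reagent.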
TDP1 cell noCPT = qHTS for Inhibitors of human tyrosyl-DNA phosphodiesterase 1 (TDP1): qHTS in cells in absence of CPT; DT40 Tdp1-/- hTDP1 cells, no CPT, ATP luminescence, 48 h; Potency, µM (highest dose often 46.2 µM), actives largely listed as inhibitors; actives 15% (n = 420,000); note: nearly all actives have a fitted effect of over 55% in size
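Chicken DT40 Tdp1-/- cells complemented with human TDP1, screened without camptothecin (DMSO vehicle only), 400 cells/well. Compounds pin-transferred, cells incubated at 37 °C for at least 48 hr. Growth read as ATP-dependent luminescence (CellTiter-Glo, 30 min at RT).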
uPA surface inh = inhibitors of cell surface uPA generation. cell surface uPA generation assay, qHTS. Potency, µM (titrated, usually from 38.3 µM), most hits filed as inhibitors. actives 0.31% (n = 330,000). AID 540303; active = well fitted inhibition curve with a large enough effect; inconclusive = small, poorly fitted or top-dose-only effect; inactive = no such curve, though single readings can be large or run the other way; tested in mouse RAW 264.7 cells; note: nearly all actives have a fitted effect of over 55% in size
TDP1 inh = blocks human tyrosyl-DNA phosphodiesterase 1. Q9NUW8. recombinant TDP1, AlphaScreen DNA substrate cleavage. Potency, µM (titrated, usually from 130 µM), actives largely listed as inhibitors. actives 0.28% (n = 350,000). AID 485290; note: nearly all actives have a fitted effect of over 40% in size
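Tdp1 1 nM final; 15 min RT w/ cpd; substrate 15 nM, 5 min; beads 10 ug/ml, 10 min; AlphaScreen read. Neg ctrl: no enzyme.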
TDP1 cell CPT = growth inhibition of DT40 Tdp1-/-;hTDP1 cells with camptothecin (screen for TDP1 inhibitors) | chicken DT40 Tdp1-/-;hTDP1 cells + 20 nM CPT, ATP luminescence, 48 h | Potency, µM (series often up to 46.2 µM), actives largely listed as inhibitors | actives 12% (n = 420,000) | AID 686979; note: nearly all actives have a fitted effect of over 55% in size
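Chicken DT40 Tdp1-/- cells stably complemented with human TDP1 were seeded at 400 cells/well in medium containing 20 nM camptothecin, exposed to pin-transferred compounds, and grown at 37 °C for at least 48 hr. Viability was read as ATP luminescence.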
Of the large screens only hits and unclear results are named; the others gave an inactive call. Unless noted, calls come from the whole dose curve; as a rule, active = well fitted curve in the direction sought with a large enough effect; inconclusive = small, poorly fitted or top-dose-only effect, or another doubt; inactive = no such curve, though single readings can be large; an effect the other way counts as inactive or inconclusive.

COc1ccc(C2=C(C)C(=O)N(Cc3ccc(C(=O)Nc4ccc(C)c(C)c4)cc3)S2(=O)=O)cc1	TDP1 cell noCPT inconclusive (no result: uPA surface inh)
COC(=O)c1ccc(N2CCN(C)CC2)c(NC(=O)c2ccc(-c3ccc(Cl)cc3)o2)c1	TDP1 cell noCPT inconclusive, TDP1 cell CPT inconclusive
Cc1cc(C)c(NC(=O)CC(=O)c2ccccc2)c(Cl)c1	none (no result: TDP1 inh)
Cc1cc(C)c(C(=O)CC(=O)c2ccccc2Cl)c(O)c1	TDP1 cell noCPT 10µM, TDP1 cell CPT 16µM (no result: TDP1 inh)
COc1ccc(C)cc1S(=O)(=O)N(C)CC(=O)NCc1ccco1	none
Cc1ccc(S(=O)(=O)NCc2ccccc2)cc1C(=O)NCC(=O)Nc1c(C)cccc1C	TDP1 cell noCPT 21µM, TDP1 cell CPT inconclusive (no result: miR-21 reporter, uPA surface inh, TDP1 inh)
CCN(CC(=O)NCc1ccc(Cl)cc1)C(=O)c1ccc2cc(OC)ccc2c1	TDP1 cell noCPT 13µM, TDP1 cell CPT inconclusive
CCN(CC(=O)NCc1ccc(Cl)cc1)C(=O)c1cc(S(=O)(=O)NCc2ccccc2)ccc1C	TDP1 cell noCPT 21µM, TDP1 cell CPT inconclusive
CCN(CC(=O)NCc1ccc(Cl)cc1)C(=O)CSc1ccccc1F	TDP1 cell noCPT inconclusive (no result: miR-21 reporter)
CCN(CC(=O)NCc1ccc(Cl)cc1)C(=O)CSc1cccc(C(F)(F)F)c1	TDP1 cell noCPT 18µM, TDP1 cell CPT 18µM (no result: miR-21 reporter)
CCN(CC(=O)NCc1ccc(Cl)cc1)C(=O)c1cnc(Cl)c(Cl)c1	none
CC1CN(C(=S)Nc2cccc([N+](=O)[O-])c2)CC(C)O1 (configuration not stated)	none
COc1ccc2oc(-c3cccc(NC(=O)c4cc([N+](=O)[O-])ccc4N4CCOCC4)c3)nc2c1	TDP1 cell noCPT inconclusive, TDP1 cell CPT 13µM (no result: uPA surface inh)
O=C(Nc1cc(-c2nc3cc(Cl)ccc3o2)ccc1Cl)c1cc([N+](=O)[O-])ccc1N1CCOCC1	none (no result: uPA surface inh)
O=C(Nc1cccc(-c2nc3ccccc3o2)c1)c1cc([N+](=O)[O-])ccc1N1CCOCC1	TDP1 cell noCPT 8.2µM, TDP1 cell CPT inconclusive (no result: uPA surface inh)
O=C(O)c1cc(N(Cc2ccccc2O)Cc2cc(O)ccc2O)ccc1O	TDP1 cell noCPT 21µM, TDP1 inh inconclusive, TDP1 cell CPT inconclusive (no result: miR-21 reporter, uPA surface inh)
O=C(Cc1ccccc1)c1ccc(O)cc1O	none (no result: miR-21 reporter, TDP1 inh)
CCOc1ccc(N)c(SSc2cc(OCC)ccc2N)c1	TDP1 cell noCPT 5.2µM, TDP1 cell CPT 2.6µM (no result: TDP1 inh)
COc1ccc(C(=O)CC(=O)C(=O)NCCc2cccc(C)c2)cc1	TDP1 cell noCPT inconclusive, TDP1 cell CPT inconclusive
CCN(CC)S(=O)(=O)c1ccc(Cl)c(NC(=O)COC(=O)c2c(C)noc2C)c1	TDP1 cell noCPT 21µM, TDP1 cell CPT inconclusive
Cc1noc(C)c1C(=O)OCC(=O)Nc1ccccc1C(=O)NC(C)c1ccccc1 (configuration not stated)	TDP1 cell noCPT 21µM, TDP1 cell CPT 29µM
O=C(Nc1cc(S(=O)(=O)N2CCOCC2)ccc1Cl)C(=O)c1c(-c2ccccc2)cc2ccccn12	TDP1 cell noCPT 23µM, TDP1 cell CPT 21µM
O=C(Cn1cnc2c(cnn2-c2ccccc2)c1=O)N1CCOCC1	none
O=C(Cn1cnc2c(cnn2-c2ccccc2)c1=O)Nc1cc(S(=O)(=O)N2CCOCC2)ccc1Cl	TDP1 cell noCPT 23µM, TDP1 cell CPT inconclusive
O=C(CNCc1ccccc1Cl)Nc1cc(S(=O)(=O)N2CCOCC2)ccc1Cl	TDP1 cell noCPT inconclusive (no result: miR-21 reporter)
CCN(C(=O)CN1C(=O)NC2(CCC(C)CC2)C1=O)C1CCCCC1 (configuration not stated)	none (no result: miR-21 reporter, uPA surface inh, TDP1 inh)
Cc1c2c(n3c(nc4ccccc43)c1C#N)N(CCCN(C)C)CC2	TDP1 cell noCPT inconclusive
O=C(CC1S/C(=N/N=C/c2ccco2)NC1=O)Nc1cccc(Cl)c1Cl (configuration not stated)	none
Cc1onc(-c2ccccc2Cl)c1C(=O)OCC(=O)Nc1cccc(S(=O)(=O)N(C)C)c1	TDP1 cell noCPT 16µM, TDP1 cell CPT inconclusive
Cc1onc(-c2ccccc2)c1C(=O)OCC(=O)Nc1cc(S(=O)(=O)N2CCOCC2)ccc1Cl	TDP1 cell noCPT 23µM, TDP1 cell CPT 23µM
O=C1C=CC(=O)N1Cc1ccccc1	miR-21 reporter inconclusive, TDP1 cell noCPT 2.3µM, uPA surface inh 7.9µM, TDP1 cell CPT 1µM (no result: TDP1 inh)
